Consider one substance from patent US20060205037A1, “Modified transferrin fusion proteins” (priority 2003, published 2006).

The assay deals with GLP-1 receptor (CHO/GLP-1R cells, stably transfected CHO cells). The assay is described as follows: cell-based or functional assay.

For “exendin-4 (Bachem) (from UniProt P26349) (peptide)”, the intracellular cAMP in CHO/GLP-1R cells, EC50 amounted to 0.05 nM.
